The conditions of data set [1]: polyacrylamide gel isolectric focusing method.
Data set [2] in a line: Relative activity of the purified enzyme. Conditions: purified enzyme of Example 1.

The record followed here is patent publication US4621057A (Noda Institute for Scientific Research, priority 1983, dated 1986).

Regarding N-acetylhexosamine oxidase, where the note is “10 minutes heat treatment at 65° C.”, the “activity retained after heat treatment” value is “retains about half of its activity”. Besides, the “temperature at which deactivation begins” value (10 minutes heat treatment, potassium phosphate buffer solution of pH 6.8) is 45 °C. The isoelectric point in data set [1] is 8.0. The substance further returned a Relative activity in data set [2] of 15.5 unit/mg protein.
